Experimental data taken from US20120302748A1, “TREATMENT OR PROPHYLAXIS OF PROLIFERATIVE CONDITIONS” (THE UNIVERSITY COURT OF THE UNIVERSITY OF DUNDEE, priority 2009, published 2012).
pIC50: −log10 of the molar value.

Legend:
CHO/CYP1B1 cells = assay: Cytotoxicity in CHO/CYP1B1 cells (MTS assay); details: 72 h exposure; for IC50 ratio 72 h (CHO / CHO/CYP1B1): IC50 in normal CHO divided by IC50 in CYP1B1 transfected CHO
CHO/CYP1A1 cells = assay: Cytotoxicity in CHO/CYP1A1 cells (MTS assay); details: 72 h exposure; for IC50 ratio 72 h (CHO / CHO/CYP1A1): IC50 in normal CHO divided by IC50 in CYP1A1 transfected CHO
CHO cells = assay: Cytotoxicity in wild-type CHO cells (MTS assay); details: read-out: Cytotoxicity (IC50) CHO 72 h; 72 h exposure

O=P(O)(NCCCl)NCCCl [Cl-IPM, N,N-bis(2-chloro-ethyl)phosphoramide, reference compound]
IC50 ratio 72 h (CHO / CHO/CYP1B1) (CHO/CYP1B1 cells): <1
IC50 ratio 72 h (CHO / CHO/CYP1A1) (CHO/CYP1A1 cells): 1.2

N,N-bis(2-bromo-ethyl)phosphoramide
IC50 ratio 72 h (CHO / CHO/CYP1B1) (CHO/CYP1B1 cells): 1.25
pIC50 (CHO/CYP1B1 cells; read-out: Cytotoxicity (IC50) CHO/CYP1B1 72 h): 8.40
pIC50 (CHO cells): 8.30
IC50 ratio 72 h (CHO / CHO/CYP1A1) (CHO/CYP1A1 cells): 1
pIC50 (CHO/CYP1A1 cells; read-out: Cytotoxicity (IC50) CHO/CYP1A1 72 h): 8.30
